We go through one compound from PubChem BioAssay AID624111 (Johns Hopkins Ion Channel Center, 2012).

This is a selection; strong and weak results do not stand in their true shares. Calls of active or inactive are those of the source.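 Rule for the calls: active = duplicate-averaged calcium fluorescence ratio at least three times the standard deviation of buffer wells, a nonspecific response in parental cells; inactive = the rest.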

A short description of the test: nonspecific calcium signal in parental HEK293, confirmation, counter-screen for MrgX1 antagonist project, parental HEK293 cells, Fluo-4 calcium flux (AID 624111). Particulars: parental HEK293, Fluo-4 calcium fluorescence, FDSS; at 10 µM. On the technique in general: A counterscreen serves to expose hits that act by an unwanted route or on another target.
Turning to `CN(C)C1(CNC(=O)c2ccc(Cl)c(S(N)(=O)=O)c2)CCCCC1`, the fluorescence ratio F(max-min)/F0 is inactive: 0.
